Data from patent US9174992B2, “Heterobicyclic compounds” (Amgen Inc., priority 2012, dated 2015).

Protein sequences, listed by entry. Tags and fused reporters are not part of them.
UniProt Q9Y233, whole entry: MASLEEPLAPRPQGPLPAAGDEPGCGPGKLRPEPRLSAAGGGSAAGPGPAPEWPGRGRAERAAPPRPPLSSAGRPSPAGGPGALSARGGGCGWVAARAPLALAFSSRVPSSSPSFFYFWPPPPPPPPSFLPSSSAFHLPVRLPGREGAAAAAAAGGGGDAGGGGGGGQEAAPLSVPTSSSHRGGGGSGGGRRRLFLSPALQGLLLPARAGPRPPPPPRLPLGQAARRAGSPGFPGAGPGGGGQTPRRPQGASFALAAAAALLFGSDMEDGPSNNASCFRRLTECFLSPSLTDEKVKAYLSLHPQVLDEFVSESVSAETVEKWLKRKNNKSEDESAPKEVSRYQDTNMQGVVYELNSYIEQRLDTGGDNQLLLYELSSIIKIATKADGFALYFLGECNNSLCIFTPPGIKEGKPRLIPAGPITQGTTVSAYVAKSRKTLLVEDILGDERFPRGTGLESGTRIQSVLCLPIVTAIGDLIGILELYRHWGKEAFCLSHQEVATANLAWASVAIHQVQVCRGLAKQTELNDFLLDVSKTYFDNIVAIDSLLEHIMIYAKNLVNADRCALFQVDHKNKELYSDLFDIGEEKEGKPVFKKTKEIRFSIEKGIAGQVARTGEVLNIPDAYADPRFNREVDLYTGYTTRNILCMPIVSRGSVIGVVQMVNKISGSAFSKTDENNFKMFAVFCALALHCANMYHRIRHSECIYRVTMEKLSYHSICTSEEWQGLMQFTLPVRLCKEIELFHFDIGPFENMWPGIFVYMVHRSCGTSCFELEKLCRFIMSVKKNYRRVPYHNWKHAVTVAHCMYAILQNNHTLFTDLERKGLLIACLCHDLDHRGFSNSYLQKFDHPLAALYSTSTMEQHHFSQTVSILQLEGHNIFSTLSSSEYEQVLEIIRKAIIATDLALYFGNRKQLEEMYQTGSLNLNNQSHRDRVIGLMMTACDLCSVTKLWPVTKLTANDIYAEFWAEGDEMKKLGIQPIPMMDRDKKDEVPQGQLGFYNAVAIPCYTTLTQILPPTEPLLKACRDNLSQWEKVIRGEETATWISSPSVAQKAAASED

Biological target: PDE10A (UniProt Q9Y233)
Test: PDE10 enzyme inhibition, IMAP TR-FRET assay (Example A, MPDE10A7 Enzyme Activity and Inhibition)
Type: biochemical
Settings: approximate IC50 value, Table 10

In the case of `O=C(O)c1cnc(N[C@H]2C[C@H](n3c(=O)n(C4CC4)c4nccnc43)C2)s1` (relative stereo), the IC50 is reported as 8.48 µM.

In the case of `COC(=O)c1cnc(N[C@H]2C[C@H](n3c(=O)n(C4CC4)c4nccnc43)C2)s1` (relative stereo), the IC50 is reported as 0.193 µM.
